From PMC8587101, “Design and Synthesis of Novel Betulin Derivatives Containing Thio-/Semicarbazone Moieties as Apoptotic Inducers through Mitochindria-Related Pathways” (Molecules, 2021)

Tested on: human hepatocellular carcinoma cells (HepG2)
Test: MTT cytotoxicity assay, HepG2
Conditions: HepG2, ratio of IC50 values

**Q.** `C=C(C)[C@@H]1CC[C@]2(/C=N/NC(=O)Nc3cccc(C(F)(F)F)c3)CC[C@]3(C)C(CCC4[C@@]5(C)CC[C@H](O)C(C)(C)C5CC[C@]43C)C12` (stereo partly drawn) [Compound 7e, Lup-20(29)-ene-3β-ol-28-N-(3-(trifluoromethyl)phenyl)semicarbazide] was tested. Which “cytotoxicity fold higher than betulin” value did it give?
**A.** Its value is “about 2.28 fold”.

**Q.** For `C=C(C)[C@@H]1CC[C@]2(/C=N/NC(=S)Nc3cccc(Cl)c3)CC[C@]3(C)[C@H](CC[C@@H]4[C@@]5(C)CC[C@H](O)C(C)(C)[C@@H]5CC[C@]43C)[C@@H]12` [Compound 8f, Lup-20(29)-ene-3β-ol-28-N-(3-chlorophenyl)thiosemicarbazide], which “cytotoxicity fold higher than betulin” value is on record?
**A.** Its value is 2.97 fold.

Same assay, conditions: Homo sapiens, HepG2, 48 h, read-out: IC50 (μM) HepG2

**Q.** How did the IC50 turn out when `C=C(C)[C@@H]1CC[C@]2(CO)CC[C@]3(C)[C@H](CC[C@@H]4[C@@]5(C)CC[C@H](O)C(C)(C)[C@@H]5CC[C@]43C)[C@@H]12` [Compound 1, lup-20(29)-ene-3β,28-diol, reference compound] was run?
**A.** The IC50 was 20.4 ± 1.22 µM.

**Q.** For `C=C(C)[C@@H]1CC[C@]2(/C=N/NC(=O)Nc3ccc(Cl)cc3)CC[C@]3(C)C(CCC4[C@@]5(C)CC[C@H](O)C(C)(C)C5CC[C@]43C)C12` (stereo partly drawn) [Compound 7a, Lup-20(29)-ene-3β-ol-28-N-(4-chlorophenyl)semicarbazide], which IC50 is on record?
**A.** The IC50 was 11.6 ± 0.62 µM.

**Q.** With `C=C(C)[C@@H]1CC[C@]2(/C=N/NC(=O)Nc3ccc(C#N)cc3)CC[C@]3(C)C(CCC4[C@@]5(C)CC[C@H](O)C(C)(C)C5CC[C@]43C)C12` (stereo partly drawn) [Compound 7b, Lup-20(29)-ene-3β-ol-28-N-(4-cyanophenyl)semicarbazide] as the compound, how does the IC50 read?
**A.** Its IC50 is 15.4 ± 0.75 µM.

**Q.** Which IC50 does the source give for `C=C(C)[C@@H]1CC[C@]2(/C=N/NC(=O)Nc3ccc(OC)cc3)CC[C@]3(C)C(CCC4[C@@]5(C)CC[C@H](O)C(C)(C)C5CC[C@]43C)C12` (stereo partly drawn) [Compound 7c, Lup-20(29)-ene-3β-ol-28-N-(4-methoxyphenyl)semicarbazide] here?
**A.** The IC50 was 46.7 ± 1.68 µM.

**Q.** Which IC50 does the source give for `C=C(C)[C@@H]1CC[C@]2(/C=N/NC(=O)Nc3ccc(C(F)(F)F)cc3)CC[C@]3(C)C(CCC4[C@@]5(C)CC[C@H](O)C(C)(C)C5CC[C@]43C)C12` (stereo partly drawn) [Compound 7d, Lup-20(29)-ene-3β-ol-28-N-(4-(trifluoromethyl)phenyl)semicarbazide] here?
**A.** The IC50 was 12.6 ± 0.67 µM.

**Q.** How did the IC50 turn out when `C=C(C)[C@@H]1CC[C@]2(/C=N/NC(=O)Nc3cccc(C(F)(F)F)c3)CC[C@]3(C)C(CCC4[C@@]5(C)CC[C@H](O)C(C)(C)C5CC[C@]43C)C12` (stereo partly drawn) [Compound 7e, Lup-20(29)-ene-3β-ol-28-N-(3-(trifluoromethyl)phenyl)semicarbazide] was run?
**A.** The IC50 was 8.93 ± 0.63 µM.

**Q.** Which IC50 does the source give for `C=C(C)[C@@H]1CC[C@]2(/C=N/NC(=O)Nc3cccc(C)c3)CC[C@]3(C)C(CCC4[C@@]5(C)CC[C@H](O)C(C)(C)C5CC[C@]43C)C12` (stereo partly drawn) [Compound 7f, Lup-20(29)-ene-3β-ol-8-N-(m-tolyl)semicarbazide] here?
**A.** The IC50 was 49 ± 1.96 µM.

**Q.** With `C=C(C)[C@@H]1CC[C@]2(/C=N/NC(=O)Nc3ccc(Cl)c(C(F)(F)F)c3)CC[C@]3(C)C(CCC4[C@@]5(C)CC[C@H](O)C(C)(C)C5CC[C@]43C)C12` (stereo partly drawn) [Compound 7g, Lup-20(29)-ene-3β-ol-28-N-((3-trifluoromethyl-4-chloro)phenyl)semicarbazide] as the compound, how does the IC50 read?
**A.** Its IC50 is 11 ± 1.02 µM.

**Q.** Which IC50 does the source give for `C=C(C)[C@@H]1CC[C@]2(/C=N/NC(=S)Nc3ccc(F)cc3)CC[C@]3(C)C(CCC4[C@@]5(C)CC[C@H](O)C(C)(C)C5CC[C@]43C)C12` (stereo partly drawn) [Compound 8a, Lup-20(29)-ene-3β-ol-28-N-(4-fluorophenyl)thiosemicarbazide] here?
**A.** The IC50 was 12.4 ± 0.48 µM.

**Q.** With `C=C(C)[C@@H]1CC[C@]2(/C=N/NC(=S)Nc3ccc(Cl)cc3)CC[C@]3(C)C(CCC4[C@@]5(C)CC[C@H](O)C(C)(C)C5CC[C@]43C)C12` (stereo partly drawn) [Compound 8b, Lup-20(29)-ene-3β-ol-28-N-(4-chlorophenyl)thiosemicarbazide] as the compound, how does the IC50 read?
**A.** Its IC50 is 8.4 ± 0.34 µM.

**Q.** Which IC50 does the source give for `C=C(C)[C@@H]1CC[C@]2(/C=N/NC(=S)Nc3ccc(C)cc3)CC[C@]3(C)C(CCC4[C@@]5(C)CC[C@H](O)C(C)(C)C5CC[C@]43C)C12` (stereo partly drawn) [Compound 8c, Lup-20(29)-ene-3β-ol-28-N-(p-tolyl)thiosemicarbazide] here?
**A.** The IC50 was 40.2 ± 1.28 µM.

**Q.** How did the IC50 turn out when `C=C(C)[C@@H]1CC[C@]2(/C=N/NC(=S)Nc3ccc(OC)cc3)CC[C@]3(C)C(CCC4[C@@]5(C)CC[C@H](O)C(C)(C)C5CC[C@]43C)C12` (stereo partly drawn) [Compound 8d, Lup-20(29)-ene-3β-ol-28-N-(4-methoxyphenyl)thiosemicarbazide] was run?
**A.** Its IC50 is 32.5 ± 1.17 µM.

**Q.** `C=C(C)[C@@H]1CC[C@]2(/C=N/NC(=S)Nc3ccc(C(C)(C)C)cc3)CC[C@]3(C)C(CCC4[C@@]5(C)CC[C@H](O)C(C)(C)C5CC[C@]43C)C12` (stereo partly drawn) [Compound 8e, Lup-20(29)-ene-3β-ol-28-N-(4-tert-butylphenyl)thiosemicarbazide] was tested. Which IC50 did it give?
**A.** Its IC50 is > 80 µM.

**Q.** With `C=C(C)[C@@H]1CC[C@]2(/C=N/NC(=S)Nc3cccc(Cl)c3)CC[C@]3(C)[C@H](CC[C@@H]4[C@@]5(C)CC[C@H](O)C(C)(C)[C@@H]5CC[C@]43C)[C@@H]12` [Compound 8f, Lup-20(29)-ene-3β-ol-28-N-(3-chlorophenyl)thiosemicarbazide] as the compound, how does the IC50 read?
**A.** Its IC50 is 6.87 ± 0.76 µM.

**Q.** How did the IC50 turn out when `C=C(C)[C@@H]1CC[C@]2(/C=N/NC(=S)Nc3ccc(Cl)c(Cl)c3)CC[C@]3(C)C(CCC4[C@@]5(C)CC[C@H](O)C(C)(C)C5CC[C@]43C)C12` (stereo partly drawn) [Compound 8g, Lup-20(29)-ene-3β-ol-28-N-(3,4-dichlorophenyl)thiosemicarbazide] was run?
**A.** The IC50 was 8.74 ± 0.48 µM.

**Q.** `CO[C@@]12[C@H](COC(N)=O)C3=C(C(=O)C(C)=C(N)C3=O)N1C[C@@H]1N[C@@H]12` [Mitomycin, Mitomycin C, reference compound] was tested. Which IC50 did it give?
**A.** Its IC50 is 27.4 ± 1.24 µM.
